Results taken from article PMC3411462, “Long-acting κ opioid antagonists nor-BNI, GNTI and JDTic: pharmacokinetics in mice and lipophilicity” (BMC Pharmacology, 2012).

Chains of the proteins cited; added tags and fusions are not shown.
UniProt P08183, whole entry: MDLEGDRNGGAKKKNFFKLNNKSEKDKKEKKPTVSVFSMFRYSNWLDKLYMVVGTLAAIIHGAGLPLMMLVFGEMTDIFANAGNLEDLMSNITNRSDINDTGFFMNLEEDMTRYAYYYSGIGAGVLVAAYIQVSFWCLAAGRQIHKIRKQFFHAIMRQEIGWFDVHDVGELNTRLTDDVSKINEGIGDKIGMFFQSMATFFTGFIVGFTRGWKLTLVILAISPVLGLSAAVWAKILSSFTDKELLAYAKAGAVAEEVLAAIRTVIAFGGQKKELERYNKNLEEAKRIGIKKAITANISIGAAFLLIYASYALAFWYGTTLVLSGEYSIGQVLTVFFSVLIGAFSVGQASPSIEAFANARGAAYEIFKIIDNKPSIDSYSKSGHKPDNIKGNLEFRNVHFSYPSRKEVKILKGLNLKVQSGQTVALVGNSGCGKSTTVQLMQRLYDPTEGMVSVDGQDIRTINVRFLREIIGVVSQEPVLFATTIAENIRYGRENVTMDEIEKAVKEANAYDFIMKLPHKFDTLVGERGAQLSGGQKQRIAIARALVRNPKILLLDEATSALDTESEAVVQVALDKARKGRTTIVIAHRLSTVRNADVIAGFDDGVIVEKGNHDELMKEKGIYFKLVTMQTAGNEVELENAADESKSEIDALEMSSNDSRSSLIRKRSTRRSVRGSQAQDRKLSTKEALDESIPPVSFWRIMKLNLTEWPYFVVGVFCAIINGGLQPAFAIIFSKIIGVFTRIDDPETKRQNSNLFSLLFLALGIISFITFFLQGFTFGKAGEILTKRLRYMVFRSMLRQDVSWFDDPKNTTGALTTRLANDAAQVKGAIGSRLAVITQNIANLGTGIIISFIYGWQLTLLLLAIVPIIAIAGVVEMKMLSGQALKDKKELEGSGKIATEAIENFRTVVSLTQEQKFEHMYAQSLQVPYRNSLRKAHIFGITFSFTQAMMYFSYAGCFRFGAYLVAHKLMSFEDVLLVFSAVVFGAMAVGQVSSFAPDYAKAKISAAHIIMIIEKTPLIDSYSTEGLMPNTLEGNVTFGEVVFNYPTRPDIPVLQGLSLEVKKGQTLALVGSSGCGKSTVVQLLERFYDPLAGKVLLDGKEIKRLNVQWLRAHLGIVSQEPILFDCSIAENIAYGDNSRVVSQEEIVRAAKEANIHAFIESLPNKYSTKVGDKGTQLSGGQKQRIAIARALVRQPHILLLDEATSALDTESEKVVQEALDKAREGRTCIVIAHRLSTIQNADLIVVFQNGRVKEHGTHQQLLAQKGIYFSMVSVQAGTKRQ

Experiments:
[1] = Octanol-buffer distribution (log D7.4); assay type: physicochemical; settings: mean, n = 3
P-gp (human MDR1) = biological target: T1, P-gp (human MDR1) (Homo sapiens, UniProt P08183); experiment: LLC-PK1-MDR1 cell permeation and efflux; assay type: in vitro ADME; settings: pig (LLC-PK1 cells) transfected with human MDR1; LLC-PK1-MDR1 monolayers; read-out: Efflux ratio (B → A/A → B)
T1 construct: expressed in transfected cells; host or cells: LLC-PK1 (pig kidney epithelial cells) transfected with human MDR1 at Amgen

Q: For `Oc1ccc2c3c1O[C@H]1c4[nH]c5c(c4C[C@@]4(O)[C@@H](C2)N(CC2CC2)CC[C@]314)C[C@@]1(O)[C@H]2Cc3ccc(O)c4c3[C@@]1(CCN2CC1CC1)[C@H]5O4` [nor-BNI, norbinaltorphimine], which “Log10D7.4 octanol:buffer (pH 7.4)” value [1] is on record?
A: 1–3

Q: And the “Log10D7.4 octanol:buffer (pH 7.4)” value ([1]; listed as Nor-BNI)?
A: 1.5

Q: And the efflux ratio at 120 min, 5 μM (P-gp (human MDR1))?
A: 1.5
